# Test results reported in patent publication US10149876B2, “Tripterygium wilfordii extracts to overcome chemotherapy resistance” (WESTERN UNIVERSITY OF HEALTH SCIENCES, priority 2012, dated 2018).
# What was measured:
# Assay type in all cases: cell-based, human
# SkBr3 cells = assay: SRB cell viability assay, lapatinib-sensitive SkBr3 cells; settings: Lapatinib 0.02 μM, no chemosensitizing pre-treatment; background = 0.047
# Description: (§1) Cell culture of the above cell lines was performed as described in Example 2, except that 5,000, rather than 3,000 cells were plated per well for the K562, K562/Dox, BT474, SkBr3 lines.
# (§2) The chemotherapeutic drugs that were tested for chemosensitization in combination with LTG-E were docetaxel, daunorubicin, Herceptin®, and lapatinib. […] Table 17 also contains the serially-diluted concentrations of drugs that each cell line was tested against.
# (§3) FIG. 13 summarizes the data of Tables 32-33 in a graphical format.
# SkBr3-TxR cells = assay: SRB cell viability assay, lapatinib-resistant SkBr3-TxR cells
# Description: as §3
# Using the cell culture methods described in Examples 2, with the exception that 5000 SkBr3-TxR cells were plated per well, the chemosensitizing effect of LGT-E on lapatinib-treated SkBr3-TxR cells was studied. […] FIG. 14 summarizes the data of Tables 34 and 35 in a graphical format.
# K562 cells = assay: SRB cell viability assay, daunorubicin-sensitive K562 cells; settings: 72 h, pre-treated with 25 μg/ml LGT-E, background = 0.044
# Description: as §1, §2
# Using the cell culture methods described in Example 2, the chemosensitizing effect of LTG-E on daunorubicin-treated K562 cells was studied. […] Table 36 reports the cell viability data relating to pre-treatment with LTG-E prior to daunorubicin treatment. Table 37 reports control data obtained from cells that were not pre-treated with LGT-E prior to daunorubicin treatment. FIG. 15 summarizes the data of Tables 36 and 37 in a graphical format.
# K562/Dox cells = assay: SRB cell viability assay, daunorubicin-resistant K562/Dox cells; settings: Docetaxel 33.3 nM (so in the source), 72 h, no LGT-E pre-treatment; background = 0.043
SMILES,mean A at 565 nm (SkBr3 cells),"mean A at 565 nm (SkBr3-TxR cells; Lapatinib 0.001 μM, 72 h, pre-treated with […] LGT-E, background = 0.044)","mean A at 565 nm (SkBr3-TxR cells; Lapatinib 0.067 μM, 72 h, no LGT-E pre-treatment (control to Table 34), background = 0.044)","mean A at 565 nm (SkBr3-TxR cells; Lapatinib 0.067 μM, 72 h, pre-treated with […] LGT-E, background = 0.044)","mean A at 565 nm (SkBr3-TxR cells; Lapatinib 0.067 μM, no chemosensitizing pre-treatment (Table 33), background = 0.047)","mean A at 565 nm (SkBr3-TxR cells; Lapatinib 0.2 μM, 72 h, no LGT-E pre-treatment (control to Table 34), background = 0.044)","mean A at 565 nm (SkBr3-TxR cells; Lapatinib 0.67 μM, 72 h, pre-treated with […] LGT-E, background = 0.044)","mean A at 565 nm (SkBr3-TxR cells; Lapatinib 0.67 μM, no chemosensitizing pre-treatment (Table 33), background = 0.047)",mean A at 516 nm (K562 cells; Docetaxel 0.333 nM (so in the source)),mean A at 516 nm (K562 cells; Docetaxel 1 nM (so in the source)),mean A at 565 nm (K562/Dox cells)
CS(=O)(=O)CCNCc1ccc(-c2ccc3ncnc(Nc4ccc(OCc5cccc(F)c5)c(Cl)c4)c3c2)o1 [lapatinib],2.056,2.214,2.207,2.051,2.345,2.136,1.681,2.109,,,
"CC(=O)O[C@@]12CO[C@@H]1C[C@H](O)[C@@]1(C)C(=O)[C@H](O)C3=C(C)[C@@H](OC(=O)[C@H](O)[C@@H](NC(=O)OC(C)(C)C)c4ccccc4)C[C@@](O)([C@@H](OC(=O)c4ccccc4)[C@H]21)C3(C)C [Docetaxel, docetaxel]",,,,,,,,,2.257,1.547,1.683
